In ChEMBL document CHEMBL2021819, “CoA Adducts of 4-Oxo-4-Phenylbut-2-enoates: Inhibitors of MenB from the M. tuberculosis Menaquinone Biosynthesis Pathway” (ACS Med Chem Lett, 2011):

Molecular target: T1, 1,4-dihydroxy-2-naphthoyl-CoA synthase (Mycobacterium tuberculosis) (UniProt P9WNP5)
T1 sequence (whole entry): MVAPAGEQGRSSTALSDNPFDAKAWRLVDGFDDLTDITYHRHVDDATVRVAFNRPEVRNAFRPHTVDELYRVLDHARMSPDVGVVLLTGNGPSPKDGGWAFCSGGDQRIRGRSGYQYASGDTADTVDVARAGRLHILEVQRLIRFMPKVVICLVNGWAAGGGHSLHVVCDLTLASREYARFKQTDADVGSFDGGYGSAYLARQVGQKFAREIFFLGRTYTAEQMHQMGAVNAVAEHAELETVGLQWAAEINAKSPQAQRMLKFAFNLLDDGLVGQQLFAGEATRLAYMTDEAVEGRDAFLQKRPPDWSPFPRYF
Experiment: Inhibition of Mycobacterium tuberculosis MenB expressed in Escherichia coli BL21 (DE3) assessed as formation of DHNA-CoA from OSB-CoA at 50 uM by enzyme coupled-assay in presence of Escherichia coli MenE
Conditions: tested as the 2H-labelled form

C[C@H](NC(CC(=O)c1ccccc1Cl)C(=O)O)c1ccccc1 (stereo partly specified)
inhibition: Active

Calls of active or inactive are those of the source. The rule behind the calls is not given here.
